Experimental data reported in PubChem BioAssay AID488960 (Johns Hopkins Ion Channel Center, 2010).
The entries are a selection whose mix differs from that of the whole data set. Calls of active or inactive are those of the source.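 How the source made its calls: active means fluorescence ratio falls more than 5 SD below the full-stimulation control mean, in both duplicate runs; inactive means the rest.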

The chains behind the UniProt entries cited, without tags or fusion partners.
UniProt Q61143, whole entry: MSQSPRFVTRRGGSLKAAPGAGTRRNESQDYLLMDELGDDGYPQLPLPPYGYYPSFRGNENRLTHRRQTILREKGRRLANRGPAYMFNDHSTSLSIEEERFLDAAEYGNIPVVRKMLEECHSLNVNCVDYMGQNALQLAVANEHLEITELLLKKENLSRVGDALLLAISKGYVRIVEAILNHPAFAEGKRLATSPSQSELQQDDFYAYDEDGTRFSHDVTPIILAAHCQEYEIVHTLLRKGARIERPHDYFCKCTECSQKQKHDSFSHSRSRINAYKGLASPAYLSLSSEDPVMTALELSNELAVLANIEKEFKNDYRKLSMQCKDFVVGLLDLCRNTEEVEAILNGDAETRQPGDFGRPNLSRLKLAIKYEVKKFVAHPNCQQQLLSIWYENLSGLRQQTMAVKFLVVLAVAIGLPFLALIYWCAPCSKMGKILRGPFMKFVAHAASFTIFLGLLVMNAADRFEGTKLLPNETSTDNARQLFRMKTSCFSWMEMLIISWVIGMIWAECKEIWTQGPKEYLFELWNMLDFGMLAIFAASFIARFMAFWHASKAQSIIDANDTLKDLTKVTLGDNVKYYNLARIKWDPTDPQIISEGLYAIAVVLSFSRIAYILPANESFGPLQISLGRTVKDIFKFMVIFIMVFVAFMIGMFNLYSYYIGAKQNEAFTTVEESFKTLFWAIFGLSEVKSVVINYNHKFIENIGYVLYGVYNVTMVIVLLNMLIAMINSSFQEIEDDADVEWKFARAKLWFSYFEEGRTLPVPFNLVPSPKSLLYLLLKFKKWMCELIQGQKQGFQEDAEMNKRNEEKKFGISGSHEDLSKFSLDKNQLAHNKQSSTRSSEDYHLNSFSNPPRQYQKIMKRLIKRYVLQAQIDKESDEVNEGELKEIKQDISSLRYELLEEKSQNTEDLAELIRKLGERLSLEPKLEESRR

target: Short transient receptor potential channel 6 (Mus musculus) (UniProt Q61143); assay: mouse TRPC6 channel inhibitors, confirmation, HEK293 cells, membrane potential dye, duplicate (AID 488960); details: ACh-evoked depolarization, at 10 µM, stronger effect = higher value;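 further: integrated fluorescence ratio of peak minus minimum over baseline after agonist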

| SMILES | inhibition |
| --- | --- |
| CCN(CC)CCCOC(=O)C(O)(c1ccccc1)c1ccccc1 | active: 98.5% |
| CCN(CC)CCCOC(=O)C(O)(c1ccccc1)C1CCCCC1 (configuration not stated) | active: 91.9% |
| CN(C)CCOC(=O)C(O)(c1ccccc1)C1CCCCC1 (configuration not stated) | active: 82.8% |
| CCOC(=O)c1ccc(NP(C)(=O)Oc2ccc(Cl)cc2)cc1 (configuration not stated) | active: 64.3% |
| O=C(OCCCN1CCCC1)C(O)(c1ccccc1)C1CCCCC1 (configuration not stated) | active: 83.3% |
| CCN(CC)CC(O)COC(=O)C(O)(c1ccccc1)C1CCCCC1 (configuration not stated) | active: 95% |
| CN(C)CCOC(=O)C(O)(c1ccccc1)C1CCCC1 (configuration not stated) | active: 90.8% |
